Molecular target: GFP-actin^G13R (UniProt P60709)
Assay: FRET or BRET

maximum E FRET (acceptor photobleaching): 23%
Substance: DsRed-GPVAT-Tβ4 (from UniProt P62326 1-44) (natural protein)
